# Laboratory results published in paper PMC9226319, “Peripherally restricted transthyretin-based delivery system for probes and therapeutics avoiding opioid-related side effects” (Nature Communications, 2022).
# Tests used:
# [1] = tested on: male Sprague-Dawley rats; assay: Gastrointestinal (GI) transit (charcoal meal) assays; type: in vivo, rat; details: antagonist SC 30 min before fentanyl 1 mg/kg SC; AG10-L2-Nal 35 µmol/kg (30 mg/kg); naloxegol dose not stated in text (30 and 100 mg/kg in Supp Fig. 10)
# [2] = tested on: male Sprague-Dawley rats; assay: Hot plate analgesia (latency) assays; details: antagonist SC 30 min before fentanyl 1 mg/kg SC; AG10-L2-Nal 35 µmol/kg (30 mg/kg); naloxegol dose not stated in text (30 and 100 mg/kg in Supp Fig. 10)
Structure (SMILES),reversal of fentanyl-induced OIC [1],reversal of fentanyl-induced analgesia [2]
C=CCN1CC[C@]23c4c5ccc(O)c4O[C@H]2[C@@H](OCc2cn(CCNCCCCCCOc4cc(OCCCc6c(C)n[nH]c6C)cc(C(=O)O)c4)nn2)CC[C@@]3(O)[C@H]1C5 [AG10-L2-Nal],minimal reversal of OIC,no reversal of analgesia
"C=CCN1CC[C@]23c4c5ccc(O)c4O[C@H]2[C@@H](OCCOCCOCCOCCOCCOCCOCCOC)CC[C@@]3(O)[C@H]1C5 [Naloxegol, reference compound]",–,effective in reversing both analgesia and OIC
